The numbers were not newly measured in US9689841B2, “Fluorescent pI markers for isoelectric focusing separations and fluorescent labeling” (The Texas A&M University System, priority 2011, dated 2017), which cites them from elsewhere.

Usually pKa stands for the negative logarithm of the acid dissociation constant.

The conditions of the data set: second (higher) of the two pKa values; cited from earlier work.

Consider `O=C(O)c1cccnc1` [pyridine-3-carboxylic acid], for which the pKa is reported as 4.66.
